Reference: ChEMBL document CHEMBL1157610, “Bis(morpholino-1,3,5-triazine) derivatives: potent adenosine 5'-triphosphate competitive phosphatidylinositol-3-kinase/mammalian target of rapamycin inhibitors: discovery of compound 26 (PKI-587), a highly efficacious dual inhibitor” (J Med Chem, 2010)

Amino acid sequences for entries named in this document (tags omitted). A change or cut given only in a name is not applied to a line headed by its entry.
UniProt P42336, whole entry: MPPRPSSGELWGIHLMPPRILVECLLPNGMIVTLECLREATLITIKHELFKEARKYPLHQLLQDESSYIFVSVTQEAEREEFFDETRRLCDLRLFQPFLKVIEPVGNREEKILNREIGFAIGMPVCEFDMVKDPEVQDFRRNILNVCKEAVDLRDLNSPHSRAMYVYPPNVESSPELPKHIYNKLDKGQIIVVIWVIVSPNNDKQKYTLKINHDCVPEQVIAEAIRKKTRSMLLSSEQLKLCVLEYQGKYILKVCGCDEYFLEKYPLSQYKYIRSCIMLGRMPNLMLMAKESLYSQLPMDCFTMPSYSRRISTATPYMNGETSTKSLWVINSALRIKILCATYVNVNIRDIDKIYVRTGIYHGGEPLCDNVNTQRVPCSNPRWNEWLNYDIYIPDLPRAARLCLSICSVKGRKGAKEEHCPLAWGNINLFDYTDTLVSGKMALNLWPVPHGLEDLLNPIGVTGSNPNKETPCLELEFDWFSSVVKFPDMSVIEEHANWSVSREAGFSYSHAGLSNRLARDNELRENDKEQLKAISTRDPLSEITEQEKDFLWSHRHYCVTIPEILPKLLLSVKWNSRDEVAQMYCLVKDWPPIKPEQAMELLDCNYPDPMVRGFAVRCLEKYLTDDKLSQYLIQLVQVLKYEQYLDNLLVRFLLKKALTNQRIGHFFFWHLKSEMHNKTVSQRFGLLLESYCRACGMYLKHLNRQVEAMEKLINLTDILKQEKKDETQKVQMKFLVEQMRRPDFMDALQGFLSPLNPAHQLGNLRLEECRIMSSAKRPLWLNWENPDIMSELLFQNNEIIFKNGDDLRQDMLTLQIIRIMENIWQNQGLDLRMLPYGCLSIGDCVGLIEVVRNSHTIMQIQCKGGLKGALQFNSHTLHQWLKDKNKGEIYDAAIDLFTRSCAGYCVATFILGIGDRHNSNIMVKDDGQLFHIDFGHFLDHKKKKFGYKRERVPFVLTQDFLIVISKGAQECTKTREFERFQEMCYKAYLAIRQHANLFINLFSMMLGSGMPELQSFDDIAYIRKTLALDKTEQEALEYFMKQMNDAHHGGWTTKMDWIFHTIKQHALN
UniProt P48736: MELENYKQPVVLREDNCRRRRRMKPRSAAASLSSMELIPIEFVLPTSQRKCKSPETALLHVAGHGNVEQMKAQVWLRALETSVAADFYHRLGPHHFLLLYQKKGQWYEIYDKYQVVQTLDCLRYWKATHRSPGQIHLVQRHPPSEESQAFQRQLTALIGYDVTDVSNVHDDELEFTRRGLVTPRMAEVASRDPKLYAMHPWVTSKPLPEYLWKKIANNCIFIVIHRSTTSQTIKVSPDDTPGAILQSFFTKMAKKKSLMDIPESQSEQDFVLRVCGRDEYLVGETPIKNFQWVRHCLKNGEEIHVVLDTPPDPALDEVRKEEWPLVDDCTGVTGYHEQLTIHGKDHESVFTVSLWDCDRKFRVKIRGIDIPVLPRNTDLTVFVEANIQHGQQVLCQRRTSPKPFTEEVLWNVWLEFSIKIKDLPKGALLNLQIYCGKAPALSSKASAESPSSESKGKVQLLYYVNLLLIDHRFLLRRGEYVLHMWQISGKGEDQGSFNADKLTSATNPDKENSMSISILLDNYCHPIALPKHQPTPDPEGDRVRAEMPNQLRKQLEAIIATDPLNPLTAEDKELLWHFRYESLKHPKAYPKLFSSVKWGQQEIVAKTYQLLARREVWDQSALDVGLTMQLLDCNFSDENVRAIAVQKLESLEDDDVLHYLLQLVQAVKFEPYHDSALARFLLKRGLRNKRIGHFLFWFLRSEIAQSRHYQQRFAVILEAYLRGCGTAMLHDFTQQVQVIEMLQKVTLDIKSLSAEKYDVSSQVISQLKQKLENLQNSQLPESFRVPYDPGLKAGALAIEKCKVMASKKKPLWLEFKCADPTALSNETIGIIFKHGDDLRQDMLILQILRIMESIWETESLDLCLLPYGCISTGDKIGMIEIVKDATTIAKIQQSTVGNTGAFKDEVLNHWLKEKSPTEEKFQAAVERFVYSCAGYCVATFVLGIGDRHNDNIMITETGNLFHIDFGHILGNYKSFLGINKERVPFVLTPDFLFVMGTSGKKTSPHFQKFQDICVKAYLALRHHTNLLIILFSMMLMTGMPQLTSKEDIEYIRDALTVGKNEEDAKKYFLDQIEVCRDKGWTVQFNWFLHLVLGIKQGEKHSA

Tests used:
[1] = target: Phosphatidylinositol 4,5-bisphosphate 3-kinase catalytic subunit alpha isoform (Homo sapiens, UniProt P42336)
MDA-MB-361 = experiment: cells; details: Homo sapiens
[2] = target: Phosphatidylinositol 4,5-bisphosphate 3-kinase catalytic subunit gamma isoform (Homo sapiens, UniProt P48736)

| IC50 [1] | IC50 (MDA-MB-361) | IC50 [2] | Compound |
| --- | --- | --- | --- |
| 0.0015 µM | 0.019 µM | – | CNC(=O)c1ccc(NC(=O)Nc2ccc(-c3nc(N4CCOCC4)nc(N4CCOCC4)n3)cc2)cc1 |
| – | – | 0.034 µM | O=C(Nc1ccc(-c2nc(N3CCOCC3)nc(N3CCOCC3)n2)cc1)Nc1cccnc1 |
